# Assay results as given in patent publication US12023331B2 (priority 2018, dated 2024).
# Assays:
# [1] = target: NOP (Nociceptin Receptor) (Homo sapiens (Human), UniProt P41146); experiment: Receptor binding, NOP
# Delta opioid = Delta opioid (Homo sapiens (Human), UniProt P41143); experiment: Receptor binding, Delta opioid
compound,measurement,setting,value
"O=C1CN2c3c(cccc3[C@@H]3CN(CCCOc4ccc(F)cc4)CC[C@@H]32)N1 [Example 1, (6bR,10aS)-8-(3-(4-fluorophenoxy)propyl)-6b,7,8,9,10,10a-hexahydro-1H-pyrido[3′,4′:4,5]pyrrolo[1,2,3-de]quinoxalin-2(3H)-one]","Ki (nM) or maximum inhibition, NOP (Nociceptin Receptor)",[1],No inhibition
same,"Ki (nM) or maximum inhibition, Delta opioid",Delta opioid,No inhibition
